This passage reports Ratio IC50 results from ChEMBL document CHEMBL2046359, “Novel tricyclic indeno[2,1-d]pyrimidines with dual antiangiogenic and cytotoxic activities as potent antitumor agents” (Bioorg Med Chem, 2012).

Sequences of proteins named here, by UniProt entry; tags and fusion partners are left off.
UniProt P09619, whole entry: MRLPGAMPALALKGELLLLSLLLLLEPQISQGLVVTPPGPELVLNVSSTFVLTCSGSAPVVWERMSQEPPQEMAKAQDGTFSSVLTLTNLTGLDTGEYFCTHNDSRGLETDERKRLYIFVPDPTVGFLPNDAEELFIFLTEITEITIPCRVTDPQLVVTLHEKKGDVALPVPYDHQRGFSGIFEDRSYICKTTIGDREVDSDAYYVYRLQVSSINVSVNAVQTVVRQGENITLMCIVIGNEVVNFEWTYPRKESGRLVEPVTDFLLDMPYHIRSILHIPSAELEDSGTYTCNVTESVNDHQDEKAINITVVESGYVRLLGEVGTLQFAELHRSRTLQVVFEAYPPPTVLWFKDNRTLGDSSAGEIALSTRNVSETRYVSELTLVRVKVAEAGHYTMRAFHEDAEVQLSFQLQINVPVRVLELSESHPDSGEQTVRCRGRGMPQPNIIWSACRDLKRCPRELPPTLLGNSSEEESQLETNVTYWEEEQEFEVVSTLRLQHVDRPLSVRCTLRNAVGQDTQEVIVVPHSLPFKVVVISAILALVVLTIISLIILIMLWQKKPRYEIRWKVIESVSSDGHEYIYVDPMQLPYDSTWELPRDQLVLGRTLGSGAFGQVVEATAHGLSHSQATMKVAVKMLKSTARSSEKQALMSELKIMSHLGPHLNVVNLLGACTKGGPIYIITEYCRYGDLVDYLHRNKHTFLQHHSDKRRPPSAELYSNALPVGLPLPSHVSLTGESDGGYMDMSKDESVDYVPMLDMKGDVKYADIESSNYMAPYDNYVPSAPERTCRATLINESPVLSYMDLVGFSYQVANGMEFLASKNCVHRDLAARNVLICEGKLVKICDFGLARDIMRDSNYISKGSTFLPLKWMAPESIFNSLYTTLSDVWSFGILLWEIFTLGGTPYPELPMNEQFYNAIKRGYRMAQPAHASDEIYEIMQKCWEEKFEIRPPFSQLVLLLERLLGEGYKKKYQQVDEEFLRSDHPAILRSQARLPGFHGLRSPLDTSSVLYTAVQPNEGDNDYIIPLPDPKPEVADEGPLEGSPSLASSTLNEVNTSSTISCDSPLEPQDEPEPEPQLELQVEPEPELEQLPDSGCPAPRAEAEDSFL

The structures appear in SMILES notation.

Test [1] deals with T1, Platelet-derived growth factor receptor beta (Homo sapiens, UniProt P09619). As to the kind of experiment: Ratio of sunitinib IC50 to compound IC50 for PDGFRbeta in human SF539 cells pretreated for 60 mins measured after 1 hr by ELISA. The settings on record: SF-539. It is filed as cell-based. (In general: An ELISA detects its analyte on a solid surface through an enzyme-linked reagent.)

In test [2] the target is T1, Platelet-derived growth factor receptor beta. As to the kind of experiment: Ratio of erlotinib IC50 to compound IC50 for PDGFRbeta in human SF539 cells pretreated for 60 mins measured after 1 hr by ELISA. It is filed as cell-based. The note with it: SF-539.

On to `Nc1nc2c(c(Nc3ccc(F)cc3)n1)-c1ccccc1C2`, for which the Ratio IC50 in test [1] came out at 10; in test [2] it was 1.5.
